AlphaSeq binding of Ab-14 light chain variants to a spike HR2 peptide

Antigen: PDVDLGDISGINAS, a 14-residue peptide of the SARS-CoV-2 spike HR2 region.

Parent scFv Ab-14: VH joined to VL by three GGGGS repeats. Changes lie in the light chain CDRs alone.
VH: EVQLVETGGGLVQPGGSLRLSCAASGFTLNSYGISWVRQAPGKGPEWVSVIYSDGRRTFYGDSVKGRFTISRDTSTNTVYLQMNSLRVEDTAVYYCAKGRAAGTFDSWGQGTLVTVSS
VL: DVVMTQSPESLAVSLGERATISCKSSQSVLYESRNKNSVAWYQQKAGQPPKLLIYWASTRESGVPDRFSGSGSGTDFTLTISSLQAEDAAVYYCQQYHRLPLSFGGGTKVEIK

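This is the validation round: designs drawn from the data on random variants, tested in the same kind of assay. Their group label is 14L_GP_Gen (GP: Gaussian process model; Gen: genetic algorithm; a sequence that several methods proposed may carry one label only). The scFvs were displayed on barcoded MATa yeast, the peptide on MATalpha yeast. Pairs that bind mate more often; barcode pairs of the diploids are counted by sequencing. A regression on co-assayed BCL2-family reference pairs converts the normalised counts of each replicate to an apparent Kd. The assay was run in six technical replicates.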

The parent's light chain CDRs are KSSQSVLYESRNKNSVA, WASTRES, QQYHRLPLS; each variant's own CDRs replace them letter for letter. The read-out is the apparent dissociation constant on a log10 scale (nM): the lower, the stronger. The authors averaged sequences with at least three values out of six and counted those with two or fewer as poor binders. Values of this round are not directly comparable with the first-round values of the same sequences. Nonspecific signal, from three strains lacking the peptide, appeared in 4% of pairings of all light chain designs, centred on 2.64 (5% of these signals below 1.59); values are not corrected for it. For each scFv, signals with the empty controls are counted beside the result, with their mean in brackets.

CDR-L1	CDR-L2	CDR-L3	log10 Kd, replicates	signal with controls
KFQQSELYESRNKNSVA	NASTRES	QQYHRLPLS	0.12 / 0.06 / -0.12 / -0.15 / -0.02 / 0.09	0 of 18
HLSQSVLMESRNKNSVA	SASTRES	QQYHRLPLS	-0.03 / -0.05 / -0.12 / -0.10 / 0.00 / 0.24	0 of 18
KLSQSCLYESRNKNSVA	NASTRES	QDYHRLPLS	-0.09 / -0.24 / -0.01 / 0.03 / -0.26 / -0.06	1 of 18 (2.23)
KLEQSVLYESRNKNSVA	NASTRES	QDYHRLPLS	0.09 / -0.22 / -0.22 / -0.39 / -0.28 / -0.07	4 of 18 (2.85)
KLSQSVLYESRDKNSVA	DASTRES	QQYHRLPLS	0.09 / 0.02 / -0.07 / -0.06 / -0.19 / 0.25	0 of 18
KLSQSWLYESRNKNSVA	EASTRED	QQYHRLPLS	0.53 / 0.24 / 0.29 / 0.24 / 0.07 / 0.26	0 of 18
KLSQSKLYESRNKNNVA	EASTRES	QQYHRLPLS	-0.06 / -0.03 / -0.19 / -0.15 / -0.16 / -0.06	1 of 18 (2.13)
KSPQSWLYESRNKNSVA	NASQRES	QQYHRLPLS	-0.03 / -0.20 / -0.23 / -0.37 / -0.27 / -0.18	1 of 18 (3.08)
KLSQSVLYESRNKNNVA	GASTRES	QAYHRLPLS	0.36 / 0.55 / 0.23 / 0.21 / 0.10 / 0.53	1 of 18 (2.36)
KLSQSVLYESRLKNSVA	EASTRES	QQYHRLPLS	0.50 / 0.40 / 0.24 / 0.32 / 0.26 / 0.35	2 of 18 (3.74)
KLEQSMEYESRNKNSVA	NASTRES	QQYHRLPLS	-0.05 / -0.14 / -0.53 / -0.41 / -0.49 / -0.05	2 of 18 (2.67)
KLPQSFLYESRNKNSVA	EASTRES	QQYHRLPLS	-0.16 / -0.44 / -0.35 / -0.68 / -0.48 / -0.23	0 of 18
KLQQSELYESRNKNSVA	NASTRLS	QDYHRLPLS	-0.01 / 0.14 / 0.30 / -0.05 / 0.07 / 0.14	0 of 18
KLEQSVLYESRNKNAVA	NASQRES	QQYHRLPLS	0.36 / 0.04 / 0.05 / -0.21 / -0.06 / 0.07	1 of 18 (4.81)
KLSQSVLYESRNKNSVA	GASTREQ	QQYHRLPLS	-0.19 / -0.24 / 0.08 / -0.41 / 0.18 / 0.10	0 of 18
KLSQSDLYESRNFNSVA	NASTRES	QQYHRLPLS	0.12 / 0.28 / 0.20 / 0.01 / -0.06 / 0.20	1 of 18 (3.55)
FLSQSELYESRNKNSVA	NASTRES	QQYHRLPLS	0.43 / 0.21 / 0.16 / 0.08 / 0.22 / 0.30	2 of 18 (2.40)
KLSQSHLYESRNKNSVA	QASTRES	QDYHRLPLS	-0.06 / -0.14 / 0.00 / -0.28 / 0.02 / -0.04	2 of 18 (2.62)
KLSQSVLYEWRNKNSVA	EASTRES	QQYHRLPLS	0.21 / 0.17 / -0.07 / -0.45 / 0.05 / -0.23	1 of 18 (2.74)
KLSSSVLYESRNKNSVA	NASTRES	QQYHRLPLS	-0.17 / -0.35 / -0.50 / -0.59 / -0.39 / -0.40	1 of 18 (1.44)
KLSQSVLYESRMKNSVA	NASTRFS	QQYHRLPLS	0.10 / 0.16 / 0.16 / 0.65 / 0.05 / 0.08	0 of 18
KLQQSWLYESRNKNSVA	NASERES	QQYHRLPLS	-0.01 / -0.16 / -0.21 / -0.39 / -0.37 / -0.20	0 of 18
KVPQSGLYESRNKNSVA	NASTRES	QQYHRLPLS	-0.15 / -0.25 / 0.28 / -0.27 / -0.27 / -0.04	1 of 18 (1.76)
KLSQSHLYESRNSNNVA	NASTRES	QQYHRLPLS	-0.26 / -0.35 / -0.20 / -0.53 / -0.53 / -0.29	0 of 18
KLEQSFLYESRNKNSVA	NASTRMS	QQYHRLPLS	-0.27 / -0.37 / -0.50 / -0.62 / -0.45 / -0.25	2 of 18 (3.72)
KLQQSVLYESRNKNSVA	SASTRSS	QQYHRLPLS	0.47 / -0.11 / -0.02 / -0.23 / 0.07 / 0.60	0 of 18
KLEQSVCYESRNKNSVA	NASTRES	QQYHRLPLS	0.11 / 0.06 / -0.18 / -0.04 / -0.01 / 0.10	2 of 18 (2.46)
KMPQSQLYESRNKNSVA	NASQRES	QQYHRLPLS	-0.66 / 0.29 / -0.73 / -0.31 / -0.65 / -0.49	0 of 18
ILSQSELYESRNKNSVA	NASTRMS	QQYHRLPLS	-0.12 / -0.09 / -0.47 / -0.44 / -0.65 / -0.26	0 of 18
KLSQSVLYESRNKNSVA	GASTRES	QLYHRLPLS	0.61 / 0.48 / 0.79 / 0.81 / 0.94 / 0.54	0 of 18
ALSQSVLYESRNKNSVA	GASTRES	QQYHRLPLS	-0.13 / -0.28 / -0.40 / -0.44 / -0.47 / -0.34	1 of 18 (2.56)
KVSQSVLGESRNKNSVA	DASTRES	QQYHRLPLS	0.05 / -0.04 / -0.24 / -0.22 / -0.25 / 0.02	3 of 18 (2.66)
KLEQSQLYESRNKNSVA	NASTRCS	QQYHRLPLS	0.65 / 0.42 / 0.44 / 0.48 / 0.36 / 0.73	1 of 18 (2.21)
KLQQSWDYESRNKNSVA	NASTRES	QQYHRLPLS	-0.23 / -0.57 / -0.48 / -0.55 / -0.29 / -0.24	0 of 18
KSSQSVLYEDRNKNSVA	NASQRES	QQYHRLPLS	0.21 / 0.30 / 0.15 / 0.30 / 0.11 / 0.20	0 of 18

The 2 strongest on average among those seen in every replicate, once more:

CDR-L1	CDR-L2	CDR-L3	log10 Kd, replicates	signal with controls
KMPQSQLYESRNKNSVA	NASQRES	QQYHRLPLS	-0.66 / 0.29 / -0.73 / -0.31 / -0.65 / -0.49	0 of 18
KLEQSFLYESRNKNSVA	NASTRMS	QQYHRLPLS	-0.27 / -0.37 / -0.50 / -0.62 / -0.45 / -0.25	2 of 18 (3.72)

The measurements come from Li et al. 2023 (doi:10.1038/s41467-023-39022-2) through the FLAb antibody collection.